In patent publication US5432157A, “Chrysospermins, active peptides from apiocrea chrysosperma having a pharmacological effect and a use thereof” (Hoechst Aktiengesellschaft, priority 1993, dated 1995):

B1: Interleukin 3: interleukin 3 of known concentrations included in the test as control (protein, UniProt P08700 20-152, looked up)
Interleukin-3: APMTQTTPLKTSWVNCSNMIDEIITHLKQPPLPLLDFNNLNGEDQDILMENNLRRPNLEAFNRAVKSLQNASAIESILKNLLPCLPLATAAPTRHPIHIKDGDWNEFRRKLTFYLKTLENAQAQQTTLSLAIF

What was measured:
CTLL cells = experiment: interleukin 2 control (internal test standard) on CTLL cells; type: cell-based
Procedure: CTLL cells→IL-2 detection
(§1) 4×10^3 of the abovementioned cells/100 μl+100 μl of supernatant=50%}+50 μl of supernatant=25%} total volume 200 μl per well+25 μl of supernatant=12.5%}+12.5 μl of supernatant=6.25%}
(§2) The plates are incubated for 48 hours and proliferation of the cells is ascertained by incorporation of radioactive tritiated thymidine in analogy with the procedure described under point 5.
(§3) Internal test standard: To check the magnitude of the content of interleukin 2 and 3 in the individual groups, interleukin 2 and interleukin 3 of known concentrations are included in the test as controls.

DA 1 cells = experiment: interleukin 3 control (internal test standard) on DA 1 cells; type: cell-based
Procedure: DA 1 cells→IL-3 detection
as §1, §2, §3

| Molecule | Counts (CTLL cells; 1.25 μg/ml, 3.125 U/ml) | Counts (CTLL cells; 2.5 μg/ml, 6.25 U/ml) | Counts (CTLL cells; 5 μg/ml, 12.5 U/ml) | Counts (CTLL cells; 10 μg/ml, 25 U/ml) | Counts (CTLL cells; 20 μg/ml, 50 U/ml) | Counts (CTLL cells; 40 μg/ml, 100 U/ml) | Counts (CTLL cells; 80 μg/ml, 200 U/ml) | Counts (DA 1 cells; 0.3 · 2%) | Counts (DA 1 cells; 0.6 · 125%) | Counts (DA 1 cells; 1.25%) | Counts (DA 1 cells; 2.5%) | Counts (DA 1 cells; 5%) | Counts (DA 1 cells; 10%) | Counts (DA 1 cells; 20%) |
| --- | --- | --- | --- | --- | --- | --- | --- | --- | --- | --- | --- | --- | --- | --- |
| Interleukin 2: interleukin 2 of known concentrations included in the test as control | 42,751 | 78,836 | 183,303 | 225,827 | 230,215 | 229,583 | 233,430 | – | – | – | – | – | – | – |
| B1 | – | – | – | – | – | – | – | 2,580 | 5,305 | 12,102 | 24,826 | 33,018 | 38,252 | 44,525 |
